# pEC50: −log10 of the molar value.
# Chains of the proteins cited; added tags and fusions are not shown. A line that says so, or that is headed by a name, gives the form on record, which may keep a tag or linker. Residues count along the entry.
# UniProt P13569, 1-1480 with tags or gaps DEL508-508: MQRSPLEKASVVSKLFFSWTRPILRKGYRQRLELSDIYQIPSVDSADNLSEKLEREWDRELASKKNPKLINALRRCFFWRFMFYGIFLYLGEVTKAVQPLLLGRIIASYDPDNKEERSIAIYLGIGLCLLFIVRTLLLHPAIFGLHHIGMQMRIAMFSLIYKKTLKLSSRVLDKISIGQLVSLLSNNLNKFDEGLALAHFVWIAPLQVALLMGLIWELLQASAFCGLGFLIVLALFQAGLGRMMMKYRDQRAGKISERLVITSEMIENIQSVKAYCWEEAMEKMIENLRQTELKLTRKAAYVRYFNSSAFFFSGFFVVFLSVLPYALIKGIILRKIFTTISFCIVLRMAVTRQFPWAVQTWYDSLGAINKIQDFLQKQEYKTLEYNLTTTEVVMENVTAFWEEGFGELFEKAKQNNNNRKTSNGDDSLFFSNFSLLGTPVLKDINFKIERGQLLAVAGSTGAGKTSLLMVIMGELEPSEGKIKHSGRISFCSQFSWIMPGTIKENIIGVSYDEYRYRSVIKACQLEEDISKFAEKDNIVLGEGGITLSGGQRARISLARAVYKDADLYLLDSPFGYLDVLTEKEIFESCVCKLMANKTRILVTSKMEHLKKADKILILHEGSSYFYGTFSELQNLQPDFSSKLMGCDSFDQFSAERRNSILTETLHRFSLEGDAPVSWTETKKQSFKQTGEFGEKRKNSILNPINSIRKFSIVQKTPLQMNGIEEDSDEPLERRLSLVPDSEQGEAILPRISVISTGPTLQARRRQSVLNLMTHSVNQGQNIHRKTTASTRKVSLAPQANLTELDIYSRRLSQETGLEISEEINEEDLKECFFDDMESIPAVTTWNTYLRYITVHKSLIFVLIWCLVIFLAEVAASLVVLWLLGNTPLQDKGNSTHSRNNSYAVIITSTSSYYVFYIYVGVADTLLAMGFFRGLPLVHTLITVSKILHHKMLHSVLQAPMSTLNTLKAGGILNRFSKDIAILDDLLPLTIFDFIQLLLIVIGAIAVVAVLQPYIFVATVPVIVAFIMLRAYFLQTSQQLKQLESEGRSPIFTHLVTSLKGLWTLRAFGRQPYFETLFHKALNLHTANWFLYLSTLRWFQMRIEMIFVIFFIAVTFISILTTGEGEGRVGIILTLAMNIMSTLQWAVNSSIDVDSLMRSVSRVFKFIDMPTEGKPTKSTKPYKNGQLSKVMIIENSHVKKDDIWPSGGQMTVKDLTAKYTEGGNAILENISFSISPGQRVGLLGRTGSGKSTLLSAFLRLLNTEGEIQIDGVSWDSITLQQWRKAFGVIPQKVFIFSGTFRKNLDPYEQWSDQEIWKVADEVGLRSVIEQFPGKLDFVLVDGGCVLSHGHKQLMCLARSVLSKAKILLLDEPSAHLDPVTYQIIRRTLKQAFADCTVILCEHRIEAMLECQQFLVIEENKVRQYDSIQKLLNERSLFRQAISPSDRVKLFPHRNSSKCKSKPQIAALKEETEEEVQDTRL
# Target: mutant CFTR (Homo sapiens, UniProt P13569, DEL508-508)
# Test: Fluorescence (HS-YFP) assay for CFTR activity, corrector assay
# Type: cell-based
row,Structure (SMILES),pEC50
1,CN(C(=O)c1cccc(-n2nc(C(F)(F)F)c3c2CCN(S(=O)(=O)C2CCOCC2)C3)c1)c1ccc2c(c1)OCO2,> 6.00
2,Cc1cnn(C)c1S(=O)(=O)N1CCc2c(c(C(F)(F)F)nn2-c2cccc(C(=O)N(C)c3ccc4c(c3)OCO4)c2)C1,> 6.00
3,COC(=O)CC(=O)N1CCc2c(c(C(F)(F)F)nn2-c2cccc(C(=O)N(C)c3ccc4c(c3)OCO4)c2)C1,5.70 to 6.00
4,Cc1nn(C)c(C)c1S(=O)(=O)N1CCc2c(c(C(F)(F)F)nn2-c2cccc(C(=O)N(C)c3ccc4c(c3)OCO4)c2)C1,> 6.00
5,CN(C(=O)c1cccc(-n2nc(C(F)(F)F)c3c2CCN(C(=O)CC(=O)O)C3)c1)c1ccc2c(c1)OCO2,< 5.70

# Source: patent US10968225B2, “Compounds and compositions for the treatment of cystic fibrosis” (Fondazione Istituto Italiano Di Tecnologia, priority 2017, dated 2021)
